Earlier results on one substance are cited in article PMC8900292.

By UniProt entry, the sequences of proteins in these tests, tags left out.
UniProt Q16623, whole entry: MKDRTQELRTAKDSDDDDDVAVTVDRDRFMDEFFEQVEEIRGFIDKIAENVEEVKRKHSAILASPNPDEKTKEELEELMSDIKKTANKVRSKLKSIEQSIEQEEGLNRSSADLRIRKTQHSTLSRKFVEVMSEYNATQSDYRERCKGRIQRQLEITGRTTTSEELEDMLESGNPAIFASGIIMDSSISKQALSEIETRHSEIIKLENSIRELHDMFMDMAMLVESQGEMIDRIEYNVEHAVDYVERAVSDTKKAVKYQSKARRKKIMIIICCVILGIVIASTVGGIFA

The target in this data set is Syntaxin-1 (UniProt Q16623).

For the substance Munc18-1 (from UniProt P61764), the Kd (as a rule, the concentration at which binding is half-saturated) was 1 nM.
